Test results: PubChem BioAssay AID602248 (The Scripps Research Institute Molecular Screening Center, 2012)
The list shows a part of the results, in another mix than the full data. Activity calls are given as the source filed them. Rule as the data show it: active = activation above about 15%; inactive = the rest.

Test: counter-screen for M1 agonists: effect in parental CHO-K1 cells (AID 602248);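 also: untransfected CHO-K1 host cells lacking M1 receptor as counterscreen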
Details: Fluo-8 calcium fluorescence, at 3 µM, stronger effect = higher value, scaled to maximal ATP response, vehicle zero
For O=C(NCC1(N2CCOCC2)CCCCC1)c1cc(=O)[nH]c2ccccc12, the activation was inactive: 0.33%.
For COc1cc(C(=O)NCC2(N3CCCCC3)CCCCC2)ccc1OC(F)F, the activation was inactive: -0.69%.
With CCCCn1nnnc1C(c1cccc2ccccc12)N1CCC(n2c(=O)[nH]c3ccccc32)CC1 (stereo not drawn) the activation was inactive: 2.63%.
With CC(C)c1ccc(C(=O)NCC2(N3CCOCC3)CCCCC2)cc1 the activation was inactive: -0.04%.
In the case of COc1ccc(NC2CCN(C(=O)OC(C)(C)C)CC2)cc1, the activation is reported as inactive: 1.75%.
For CN1CCN(CCOC(=O)C(O)(c2ccccc2)c2ccccc2)CC1, the activation was inactive: 0.82%.
In the case of O=C(NCC1(N2CCCCC2)CCCCC1)c1cccc(C(F)(F)F)c1, the activation is reported as inactive: 3.65%.
In the case of CCN1CCC(Nc2ccc(Cl)cc2)CC1, the activation is reported as inactive: 0.76%.
In the case of N#CC1(Nc2ccccc2)CCN(CCc2ccccc2)CC1, the activation is reported as inactive: 0.56%.
With O=c1[nH]c2ccccc2n1C1CCN(C(c2ccccc2OC(F)(F)F)c2nnnn2C2CCCC2)CC1 (stereo not drawn) the activation was inactive: -0.24%.
With CSc1ccc(C(=O)NCC2(N3CCOCC3)CCCCC2)cc1 the activation was inactive: 0.1%.
For O=C(NCC1(N2CCCCC2)CCCCC1)c1cccc([N+](=O)[O-])c1, the activation was inactive: 0.45%.
In the case of CC(C)(C)n1nnnc1C(c1ccccc1OC(F)(F)F)N1CCC(n2c(=O)[nH]c3ccccc32)CC1 (stereo not drawn), the activation is reported as inactive: 1.47%.
For O=C(NCC1(N2CCCCC2)CCCCC1)c1ccc(OC(F)F)cc1, the activation was inactive: 2.41%.
With COc1ccc(C(c2nnnn2C2CCCC2)N2CCC(n3c(=O)[nH]c4ccccc43)CC2)cc1 (stereo not drawn) the activation was inactive: 1.55%.
With Cc1ccc(C(=O)NCC2(N(C)C)CCCCC2)o1 the activation was inactive: -0.2%.
For CCCOc1ccc(C(=O)NCC2(N(C)C)CCCCC2)cc1OC, the activation was inactive: 0.84%.
With O=C(NCC1(N2CCCCC2)CCCCC1)c1cncc(Br)c1 the activation was inactive: 0.06%.
With CN1CCC(Nc2cccc(F)c2)CC1 the activation was inactive: -0.08%.
With COc1cc(OC)c(C(=O)NCC2(N(C)C)CCCCC2)cc1OC the activation was inactive: 0.3%.
With O=C(NCC1(N2CCOCC2)CCCCC1)c1cc(F)c(F)cc1Cl the activation was inactive: -0.04%.
For CCC(c1nnnn1C(C)(C)C)N1CCC(n2c(=O)[nH]c3ccccc32)CC1 (stereo not drawn), the activation was inactive: 3.62%.
With CCCCn1nnnc1C(c1ccnc2ccccc12)N1CCC(n2c(=O)[nH]c3ccccc32)CC1 (stereo not drawn) the activation was inactive: 4.8%.
With CC(C)c1ccc(NC2CCN(C(=O)OC(C)(C)C)CC2)cc1 the activation was inactive: 1.98%.
In the case of CCCCn1nnnc1C(c1ccccc1OC(F)(F)F)N1CCC(n2c(=O)[nH]c3ccccc32)CC1 (stereo not drawn), the activation is reported as inactive: 0.92%.
With COc1ccc(CN(CCCl)CCCl)cc1Cl the activation was inactive: 4.56%.
For CN(C)c1cccc(C(=O)NCC2(N3CCCCC3)CCCCC2)c1, the activation was inactive: -0.1%.
With O=c1[nH]c2ccccc2n1C1CCN(C(c2cc3ccccc3o2)c2nnnn2C2CCCCC2)CC1 (stereo not drawn) the activation was inactive: 0.87%.
In the case of O=C(OC1CN2CCC1CC2)C1c2ccccc2Oc2ccccc21 (stereo not drawn), the activation is reported as inactive: 1.36%.
For N#CC1(Nc2ccccc2)CCN(Cc2ccccc2)CC1, the activation was inactive: 1.28%.
For O=C(NCC1(N2CCCCC2)CCCCC1)c1ccc(Cl)s1, the activation was inactive: 0.82%.
With COc1ccc(Cl)cc1C(=O)NCC1(N2CCOCC2)CCCCC1 the activation was inactive: -0.51%.
With CCOC(=O)N1CCC(Nc2ccc(OC)cc2)CC1 the activation was inactive: 1.89%.
With CCCCn1nnnc1C(c1ccc(OC)cc1)N1CCC(n2c(=O)[nH]c3ccccc32)CC1 (stereo not drawn) the activation was inactive: 3.63%.
In the case of O=c1[nH]c2ccccc2n1C1CCN(C(c2ccccc2OC(F)(F)F)c2nnnn2C2CCCCC2)CC1 (stereo not drawn), the activation is reported as inactive: 0.17%.
With O=C(NCC1(N2CCCCC2)CCCCC1)c1ccc(Cl)nc1 the activation was inactive: 0.13%.
For Cc1cc(C)cc(N(C(=O)c2ccccc2)C2CCN(C(=O)OC(C)(C)C)CC2)c1, the activation was inactive: -0.45%.
With O=C(NCC1(N2CCOCC2)CCCCC1)c1cc2ccccc2o1 the activation was inactive: 0.18%.
In the case of CSc1ccccc1C(=O)NCC1(N2CCCCC2)CCCCC1, the activation is reported as inactive: -0.46%.
In the case of Cc1cccc(NC2(C#N)CCN(Cc3ccccc3)CC2)c1, the activation is reported as inactive: 0.42%.
With COc1ccc(C(=O)NCC2(N3CCCCC3)CCCCC2)cc1 the activation was inactive: 0.77%.
With CCC(c1nnnn1C1CCCC1)N1CCC(n2c(=O)[nH]c3ccccc32)CC1 (stereo not drawn) the activation was inactive: 3.42%.
With CC(C)(C)OC(=O)N1CCC(N(C(=O)c2ccccc2)c2ccc(F)cc2)CC1 the activation was inactive: -0.12%.
With COc1ccc(C(=O)NCC2(N3CCCCC3)CCCCC2)c(OC)c1OC the activation was inactive: -0.14%.
In the case of O=C(NCC1(N2CCCCC2)CCCCC1)c1ccc(=O)[nH]c1, the activation is reported as inactive: 1.83%.
With CCCCn1nnnc1C(c1cccs1)N1CCC(n2c(=O)[nH]c3ccccc32)CC1 (stereo not drawn) the activation was inactive: 5%.
In the case of O=C(NCC1(N2CCCCC2)CCCCC1)c1cccs1, the activation is reported as inactive: -0.1%.
With CCCCn1nnnc1C(CC)N1CCC(n2c(=O)[nH]c3ccccc32)CC1 (stereo not drawn) the activation was inactive: 4.45%.
In the case of COc1cc(C(=O)NCC2(N(C)C)CCCCC2)ccc1OC(F)F, the activation is reported as inactive: -0.41%.
With CCOC(=O)N1CCC(Nc2cccc(C)c2)CC1 the activation was inactive: 0.59%.
In the case of O=c1[nH]c2ccccc2n1C1CCN(C(c2cccc3ccccc23)c2nnnn2C2CCCC2)CC1 (stereo not drawn), the activation is reported as inactive: -0.42%.
With O=c1[nH]c2ccccc2n1C1CCN(C(c2ccccc2)c2nnnn2C2CCCCC2)CC1 (stereo not drawn) the activation was inactive: 3.71%.
For O=C(NCC1(N2CCCCC2)CCCCC1)c1ccc(F)cc1, the activation was inactive: -0.09%.
In the case of CCCCOc1ccc(C(=O)NCC2(N3CCOCC3)CCCCC2)cc1, the activation is reported as inactive: 0.21%.
In the case of O=P1(N(CCCl)CCCl)SCCCS1, the activation is reported as inactive: 0.04%.
In the case of CCCCn1nnnc1C(c1cc2ccccc2o1)N1CCC(n2c(=O)[nH]c3ccccc32)CC1 (stereo not drawn), the activation is reported as inactive: 5.05%.
With CCOC(=O)N1CCC(Nc2ccc(F)cc2)CC1 the activation was inactive: 1.3%.
With COc1ccc(NC2CCN(CCc3ccccc3)CC2)c(OC)c1 the activation was inactive: 0.89%.
In the case of CC(C)(C)n1nnnc1C(c1ccccc1)N1CCC(n2c(=O)[nH]c3ccccc32)CC1 (stereo not drawn), the activation is reported as inactive: 3.24%.
For O=C1CCN(Cc2ccccc2)CC1, the activation was inactive: 0.37%.
For CCOc1ccc(C)cc1CN(CCCl)CCCl, the activation was inactive: 3.9%.
In the case of O=C(NCC1(N2CCCCC2)CCCCC1)c1ccco1, the activation is reported as inactive: 0.23%.
For Cn1c(=O)[nH]cc(N(CCCl)CCCl)c1=O, the activation was inactive: 0.1%.
In the case of CN(C)c1ccc(C(=O)NCC2(N3CCCCC3)CCCCC2)cc1, the activation is reported as inactive: 1.03%.
In the case of Cc1ccccc1NC1(C#N)CCN(Cc2ccccc2)CC1, the activation is reported as inactive: 1.22%.
In the case of CC(C)(C)n1nnnc1C(c1ccnc2ccccc12)N1CCC(n2c(=O)[nH]c3ccccc32)CC1 (stereo not drawn), the activation is reported as inactive: 4.23%.
With CCN1CCC(Nc2cccc(F)c2)CC1 the activation was inactive: -0.14%.
In the case of COc1ccc(C(c2nnnn2C2CCCCC2)N2CCC(n3c(=O)[nH]c4ccccc43)CC2)cc1 (stereo not drawn), the activation is reported as inactive: 0.23%.
For Cc1ccc(C(=O)NCC2(N3CCCCC3)CCCCC2)o1, the activation was inactive: 0.28%.
In the case of Fc1ccccc1NC1CCN(Cc2ccccc2)CC1, the activation is reported as inactive: -0.45%.
For Cc1ccc(NC2(C#N)CCN(Cc3ccccc3)CC2)cc1, the activation was inactive: -0.06%.
In the case of CC(=O)N(c1ccccc1)C1CCNCC1, the activation is reported as inactive: 1.33%.
In the case of COc1cccc(C(c2nnnn2C2CCCCC2)N2CCC(n3c(=O)[nH]c4ccccc43)CC2)c1OC (stereo not drawn), the activation is reported as inactive: 5.21%.
In the case of CCC(c1nnnn1C1CCCCC1)N1CCC(n2c(=O)[nH]c3ccccc32)CC1 (stereo not drawn), the activation is reported as inactive: 3.89%.
In the case of O=c1[nH]c2ccccc2n1C1CCN(C(c2ccnc3ccccc23)c2nnnn2C2CCCCC2)CC1 (stereo not drawn), the activation is reported as inactive: 3.76%.
With COc1cc(OC)cc(C(=O)NCC2(N3CCCCC3)CCCCC2)c1 the activation was inactive: 1.99%.
With CN1CCC(Nc2ccc(Cl)cc2)CC1 the activation was inactive: 0.93%.
For COc1cccc(C(=O)N(c2cc(C)cc(C)c2)C2CCN(C(=O)OC(C)(C)C)CC2)c1, the activation was inactive: -1.55%.
With COc1cccc(C(c2nnnn2C2CCCC2)N2CCC(n3c(=O)[nH]c4ccccc43)CC2)c1OC (stereo not drawn) the activation was inactive: 4.72%.
For COc1cc(OC)cc(C(=O)NCC2(N3CCOCC3)CCCCC2)c1, the activation was inactive: 1.41%.
For CCC(CO)(C(=O)OC1CN2CCC1CC2)c1ccccc1 (stereo not drawn), the activation was inactive: -0.27%.
In the case of CC(C)(C)OC(=O)N1CCC(Nc2ccccc2)CC1, the activation is reported as inactive: 2.04%.
For NN(c1ccccc1)C1CCN(CCc2ccccc2)CC1, the activation was inactive: 0.15%.
For O=C(O)C1(Nc2ccccc2)CCN(Cc2ccccc2)CC1, the activation was inactive: 2.55%.
With CCCOc1ccc(C(=O)NCC2(N(C)C)CCCCC2)cc1 the activation was inactive: 3.01%.
For O=c1[nH]c2ccccc2n1C1CCN(C(c2cc3ccccc3o2)c2nnnn2C2CCCC2)CC1 (stereo not drawn), the activation was inactive: 4.22%.
With CCOc1ncccc1C(=O)NCC1(N2CCOCC2)CCCCC1 the activation was inactive: 0.17%.
With CN1CCC(Nc2ccc(F)c(Cl)c2)CC1 the activation was inactive: 0.84%.
For O=C(OC1CN2CCC1CC2)C1c2ccccc2C=Cc2ccccc21 (stereo not drawn), the activation was inactive: 0.54%.
For O=c1[nH]c2ccccc2n1C1CCN(C(c2cccs2)c2nnnn2C2CCCC2)CC1 (stereo not drawn), the activation was inactive: 5.12%.
With CCCCn1nnnc1C(c1cccc(OC)c1OC)N1CCC(n2c(=O)[nH]c3ccccc32)CC1 (stereo not drawn) the activation was inactive: 3.82%.
For COc1cccc(C(c2nnnn2C(C)(C)C)N2CCC(n3c(=O)[nH]c4ccccc43)CC2)c1OC (stereo not drawn), the activation was inactive: 2.38%.
For CCOC(=O)N1CCC(Nc2ccc(C)cc2)CC1, the activation was inactive: -0.61%.
In the case of N/C(=N\O)c1c(N)no[n+]1[O-], the activation is reported as inactive: 0.51%.
For O=c1[nH]c2ccccc2n1C1CCN(C(c2cccs2)c2nnnn2C2CCCCC2)CC1 (stereo not drawn), the activation was inactive: 7.13%.
In the case of COc1ccc(C(=O)NCC2(N3CCOCC3)CCCCC2)cc1OC, the activation is reported as inactive: 0.32%.
In the case of O=c1[nH]c2ccccc2n1C1CCN(C(c2ccnc3ccccc23)c2nnnn2C2CCCC2)CC1 (stereo not drawn), the activation is reported as inactive: 4.95%.
For CCCCn1nnnc1C(c1ccccc1)N1CCC(n2c(=O)[nH]c3ccccc32)CC1 (stereo not drawn), the activation was inactive: 4.22%.
In the case of COc1cc(C(=O)NCC2(N3CCOCC3)CCCCC2)cc(OC)c1C, the activation is reported as inactive: 0.07%.
For O=C(NCC1(N2CCOCC2)CCCCC1)c1cc(Br)ccc1Cl, the activation was inactive: -0.86%.
With CC(C)(C)n1nnnc1C(c1cccc2ccccc12)N1CCC(n2c(=O)[nH]c3ccccc32)CC1 (stereo not drawn) the activation was inactive: 2.21%.
For CN(C)C1(CNC(=O)c2cccc(C#N)c2)CCCCC1, the activation was inactive: -0.33%.
With c1ccc(CN2CCC(Nc3ccccc3)CC2)cc1 the activation was inactive: 0.24%.
With Cc1cc(N(CCCl)CCCl)ccc1C=O the activation was inactive: 1.86%.
With O=c1[nH]c2ccccc2n1C1CCN(C(c2ccccc2)c2nnnn2C2CCCC2)CC1 (stereo not drawn) the activation was inactive: 5.16%.
With CCCN1CCC(Nc2cc(OC)cc(OC)c2)CC1 the activation was inactive: 0.91%.
With N#Cc1ccc(C(=O)NCC2(N3CCCCC3)CCCCC2)cc1 the activation was inactive: -0.44%.
With CC(C)(C)OC(=O)N1CCC(N(C(=O)c2ccccc2)c2ccc(Cl)cc2)CC1 the activation was inactive: -1.13%.
